Among the data in BindingDB's records for doi:10.1124/jpet.103.064907 (Abbott Laboratories, 2004) are Ki values, retold here.

The assay deals with T1, P2X purinoceptor 3 (Homo sapiens, UniProt P56373).
T1 sequence (P56373 whole entry): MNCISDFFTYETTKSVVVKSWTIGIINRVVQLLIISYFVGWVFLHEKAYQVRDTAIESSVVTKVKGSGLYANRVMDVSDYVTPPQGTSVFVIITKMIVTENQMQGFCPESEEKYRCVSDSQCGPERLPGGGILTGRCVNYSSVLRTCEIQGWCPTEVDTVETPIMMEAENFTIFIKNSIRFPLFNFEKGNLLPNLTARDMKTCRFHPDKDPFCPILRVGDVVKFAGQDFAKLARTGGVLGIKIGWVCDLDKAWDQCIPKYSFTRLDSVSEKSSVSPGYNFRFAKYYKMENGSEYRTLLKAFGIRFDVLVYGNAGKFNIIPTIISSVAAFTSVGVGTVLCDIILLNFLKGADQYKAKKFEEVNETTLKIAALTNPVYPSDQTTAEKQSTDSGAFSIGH

pKi: −log10 of the molar value.

In general, pKi refers to −log10 of the Ki, conventionally taken in molar units. Read a low pKi as a large Ki. As for `Cc1nc(/N=N/c2ccc(S(=O)(=O)O)cc2S(=O)(=O)O)c(COP(=O)(O)O)c(C=O)c1O`, the pKi is 5.46.
